Assay results as given in publication PMC9021956 (2022).

Key:
[1] = test system: twelve prevalent HLA-A allotypes; test: Peptide competitive binding assay, whole panel; conditions: high = IC50<5μM
[2] = biological target: HLA-A0207 (Homo sapiens, UniProt P04439, D140Y/D185E/D98H/E176V/E277Q/G131W/G231S/I119V/I121R/I166T/I218V/L300P/L318F/N151K/N90K/P208A/P217A/Q86G/Q94H/R138H/R169H/T345S/Y123C); test: cell-based
[3] = biological target: HLA-A0201 (Homo sapiens, UniProt P04439, D140Y/D185E/D98H/E176V/E277Q/G131W/G231S/I119V/I121R/I166T/I218V/L300P/L318F/N151K/N90K/P208A/P217A/Q86G/Q94H/R138H/R169H/T345S); test: cell-based
[4] = biological target: HLA-A2402 (Homo sapiens, UniProt P04439, D101N/D140Y/D185E/E176V/E190D/F33S/G103R/G107R/I119L/I121M/I306V/K335N/L105A/L180Q/L300P/N151K/N90K/Q86E/Q94H/R106L/R138H/R89G/T104I/T345S/V100E/W191G/Y123F); test: cell-based
[5] = biological target: HLA-A0101 (Homo sapiens, UniProt P04439, A114D/A174V/A182V/D101N/D185E/E176A/E190D/L180R/Q94H/R68K/S129P/T187R/V100A/V91M/W191G); test: Peptide competitive binding assay, transfected HMy2.CIR cells, reference YLEPAK(FITC)AKY
[6] = biological target: HLA-A0301 (Homo sapiens, UniProt P04439); test: Peptide competitive binding assay, transfected HMy2.CIR cells, reference ATFQFK(FITC)VER
[7] = biological target: HLA-A1102 (Homo sapiens, UniProt P04439, A114D/D185E/E176A/E43K/F33Y/L180Q/S129P/T187R); test: as above
[8] = biological target: HLA-A1101 (Homo sapiens, UniProt P04439, A114D/D185E/E176A/F33Y/L180Q/S129P/T187R); test: cell-based

Structure (SMILES)	number of HLA-A allotypes bound with high affinity [1]	IC50 [2]	IC50 [3]	IC50 [4]	IC50 [5]	IC50 [6]	IC50 [7]	IC50 [8]
CC(C)C[C@H](NC(=O)[C@@H](N)Cc1ccccc1)C(=O)N1CCC[C@H]1C(=O)N[C@@H](CO)C(=O)N[C@@H](CC(=O)O)C(=O)N[C@@H](Cc1ccccc1)C(=O)N[C@@H](Cc1ccccc1)C(=O)N1CCC[C@H]1C(=O)N[C@@H](CO)C(=O)N[C@H](C(=O)O)C(C)C [Epitope P1]	three							
CSCC[C@H](NC(=O)[C@@H](N)CCSC)C(=O)N[C@@H](Cc1c[nH]c2ccccc12)C(=O)N[C@@H](Cc1ccc(O)cc1)C(=O)N[C@@H](Cc1c[nH]c2ccccc12)C(=O)NCC(=O)N1CCC[C@H]1C(=O)N[C@@H](CO)C(=O)N[C@@H](CC(C)C)C(=O)O [Epitope P72]		< 5 µM	< 5 µM	< 5 µM	> 15 µM	> 15 µM	> 15 µM	> 15 µM
